The text below walks through data of paper PMC4229301, “A Polymeric Prodrug of 5-Fluorouracil-1-Acetic Acid Using a Multi-Hydroxyl Polyethylene Glycol Derivative as the Drug Carrier” (PLoS ONE, 2014).

Series [1] is described as follows: In vivo distribution in H22 tumor-bearing mice.
Series [2] in a line: Pharmacokinetics study after i.v. injection in rats.
Setting [3] is: 20 mg/kg 5-FA or 189 mg/kg 5-FA-PAE.

As for “multi-hydroxyl polyethylene glycol-5-fluorouracil-1-acetic acid [5-FA-PAE]”, in series [1] (72 h after injection), the “detection in all organs and tumor” value is listed as “detectable”. Moreover, the concentration in tumor in series [1] (i.v. 20 mg/kg 5-FA or equivalent 5-FA-PAE, 15 min after injection (maximum)) came out at 4.22 ± 2.3 µg/g. Moreover, the concentration in spleen in series [1] (i.v. 189 mg/kg 5-FA-PAE, 24 h (peak), as 5-FA) was 21.68 ± 10.83 µg/g. For the same substance, the “unreleased 5-FA-PAE at 24 h as share of the concentration at 5 min” value in series [2] is reported as “about 1.1%”. In series [2] (setting [3]), the “V (apparent volume of distribution)” value amounted to 1.172 ± 0.358 mL/g, the “VRT 0-t” value is reported as 190.2±19.7 h^2 and the “VRT 0-∞” value stood at 335.8±79.4 h^2.
